From patent US7244765B2, “Guanylhydrazone salts, compositions, processes of making and methods of using” (Cytokine Pharmasciences, Inc, priority 2004, dated 2007) come the findings set out here.

This data set in a line: Solubility test of Semapimod salts (sonication at room temperature, filtration, HPLC against a Semapimod-4 HCl/4 H2O standard). Type of data set: physicochemical. As to the method:
The product isolated as Semapimod-2 HCl/4 H2O was added to ca. 2 mL of solvents (H2O, 5% Dextrose solution, PBS, and 0.9% NaCl solution), and was sonicated at room temperature until the solid suspended in the solution. The mixture was passed through a Nylon syringe filter, and then 0.5 mL of the filtrate was diluted with MeOH before injection into the HPLC. […] For reference purpose, the solubility of Semapimod-4 HCl/4 H2O was determined according to the previous procedure.
The Semapimod salts mentioned in the above table were subjected to solubility tests using the same procedure outlined above.

In the case of L-lactate, the “Solubility in 5% dextrose solution, (mg/mL)” value (5% dextrose solution, molecular weight of each salt assumed 900, approximate readings) is listed as “≧49.9 mg/mL”. The “Solubility in H2O and 5% dextrose solution (in words)” value (H2O and 5% dextrose solution, solutions less than saturation used in the test) was “soluble freely”. The “Solubility in H2O, (mg/mL)” value (H2O from Pharmco, HPLC grade, molecular weight of each salt assumed 900, approximate readings) was “≧59.2 mg/mL”. Further, the “Solubility (in words)” value (general statement on aqueous solubility) was “very good solubility”.
